Data taken from ChEMBL document CHEMBL3611982, “Lowering the pKa of a bisimidazoline lead with halogen atoms results in improved activity and selectivity against Trypanosoma brucei in vitro” (Eur J Med Chem, 2015).

System: HEK-293T
Test: Cytotoxicity against HEK293T cells after 30 hrs by Alamar Blue assay
Type: cell-based
Details: human

SMILES: O=[As]c1ccccc1 (stereo unspecified)
- CC50: 320 nM
